Assay results reported in US20200129491A1, “METHODS OF TREATING BRAIN TUMORS USING COMBINATION THERAPY” (AGIOS PHARMACEUTICALS, INC., priority 2017, published 2020).

Test system: orthotopic human neurosphere-derived grade III glioma cells carrying an IDH1 R132H mutation (TS603 cell line)
Test: Ivosidenib and radiation therapy in orthotopic IDH1m glioma mouse model, survival end point (Example 2)
Format: in vivo, mice

SMILES: N#Cc1ccnc(N2C(=O)CC[C@H]2C(=O)N(c2cncc(F)c2)[C@H](C(=O)NC2CC(F)(F)C2)c2ccccc2Cl)c1 [Ivosidenib, (S)—N—((S)-1-(2-Chlorophenyl)-2-(3,3-difluorocyclobutylamino)-2-oxoethyl)-1-(4-cyanopyridin-2-yl)-N-(5-fluoropyridin-3-yl)-5-oxopyrrolidine-2-carboxamide]
- Antagonism of the combination of Ivosidenib and radiation therapy in vivo (Example 2, survival): no antagonism
- % ILS (% increase in lifespan) (Group 4: Ivosidenib + Focal Radiation (simultaneous treatment), versus median control lifespan (21 days)): 114%
- Increase in lifespan compared to the group receiving Focal Radiation (Group 2) (combination therapy (Groups 4 and 5)): comparable increases in lifespan
- Increase in lifespan versus control (combination therapy involving Ivosidenib and Focal Radiation (Groups 4 and 5)): substantial increases in lifespan
